# Experimental data from PubChem BioAssay AID602440 (Sanford-Burnham Center for Chemical Genomics, 2012).
# Amino acid sequences for entries named in this document (tags omitted). A change or cut given only in a name is not applied to a line headed by its entry.
# UniProt Q96LD8: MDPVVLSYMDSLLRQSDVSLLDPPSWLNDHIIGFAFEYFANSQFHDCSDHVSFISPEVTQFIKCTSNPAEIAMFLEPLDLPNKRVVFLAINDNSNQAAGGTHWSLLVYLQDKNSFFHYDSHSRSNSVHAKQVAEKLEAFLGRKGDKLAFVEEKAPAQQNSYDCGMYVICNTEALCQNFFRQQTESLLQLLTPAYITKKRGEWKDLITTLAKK
# The list shows a part of the results, in another mix than the full data. Activity calls are given as the source filed them. Cut-off read from the data, not from the text of the source: active = inhibition mostly above about 40% (no sharp cut-off); inactive = mostly below about 27%.
# Target: Sentrin-specific protease 8 (Homo sapiens) (UniProt Q96LD8)
# Assay: human SENP8 protease inhibitors, primary screen, biochemical, fluorescence, Nedd8 protein substrate, uHTS (AID 602440)
# Details: recombinant SENP8, Nedd8 substrate fluorescence; at 20 µM; active compounds read high
row,Structure (SMILES),inhibition
1,COc1ccccc1CNC(=O)COC(=O)C(O)(c1ccccc1)c1ccccc1,inactive: 0.5%
2,CC(C)/C=N\N=C(\N)N[N+](=O)[O-],inactive: 5.7%
3,CN(C(=O)Cc1ccc(Cl)c(Cl)c1)[C@@H]1CCCC[C@H]1N1CCCC1,inactive: 11.4%
4,CC1(CBr)Cn2c(nc3ccccc3c2=O)S1 (stereo unspecified),inactive: 20.2%
5,CCOP(=O)(NC(=NC(C)c1ccccc1)NC(C)c1ccccc1)OCC (stereo unspecified),inactive: 15.7%
6,O=P1(Nc2ccccn2)COc2ccccc2OC1,inactive: 34.4%
7,CCC1=CC2Cc3nc4ccc(Cl)cc4c(N)c3C(C1)C2 (stereo unspecified),inactive: -144%
8,CN(CCCl)Cc1cc(Cl)c(NC2=NCCN2)c(Cl)c1,inactive: 5.2%
9,CCOP(=O)(Nc1ccc(C)cn1)OCC,inactive: -10.3%
10,CC(C)(C)C(=O)NC(Sc1ncccn1)C(Cl)(Cl)Cl (stereo unspecified),inactive: 1.8%
11,O=P1(N(CCCl)CCCl)NCCC(C(F)(F)F)O1 (stereo unspecified),inactive: 8.6%
12,Clc1n[nH]nc1-c1nn[nH][15n]1,inactive: 20.2%
13,Cc1ccc(S(=O)(=O)N(CCCN)CCCc2c(C)nc(N)[nH]c2=O)cc1,inactive: 27.1%
14,O=P1(Nc2ncccn2)COc2ccccc2OC1,inactive: 13.9%
15,Nc1cccc([As](=O)(O)c2ccccc2)c1,inactive: 17.5%
16,O=P1(Nc2ccc(Br)cn2)COc2ccccc2OC1,inactive: 3.9%
17,NS(=O)(=O)c1cccc(NC(=O)COC(=O)C(O)(c2ccccc2)c2ccccc2)c1,inactive: 11%
18,O=[As](O)(c1cccs1)c1cccs1,inactive: 17.9%
19,Cc1ccc(OCC(=O)OC2CN3CCC2CC3)cc1 (stereo unspecified),inactive: 7.8%
20,CC1CCC(C(C)C)C(OP(=O)(Nc2ccccn2)c2ccccc2)C1 (stereo unspecified),inactive: 1.3%
21,Cc1ccc(C(=O)OC2CN3CCC2CC3)cc1 (stereo unspecified),inactive: 10.7%
22,Cc1nn(-c2ccccc2)c2c1P(=O)(N1CCOCC1)N(C)C(c1ccccc1)=N2 (stereo unspecified),inactive: -0.1%
23,CN(C)C1(CNC(=O)c2ccc(S(C)(=O)=O)cc2)CCCCC1,inactive: 29.3%
24,CCCC1OP(=O)(Nc2ccccc2)OCC1CC (stereo unspecified),inactive: 7.7%
25,O=C(/C=C/c1ccccc1)OC1CN2CCC1CC2 (stereo unspecified),inactive: 6%
26,NC(=O)Nc1ccc([As](=O)(O)O)cc1,inactive: 9.6%

row,Structure (SMILES),inhibition
1,CN(C(=O)Cc1ccccc1)[C@@H]1CC[C@]2(CCCO2)C[C@H]1N1CCCC1,inactive: 12.1%
2,CCOP1(=S)c2c(C)nn(CCC#N)c2N=C(c2ccc(F)cc2)N1C (stereo unspecified),inactive: -6.7%
3,N#CCCN(C(=O)COC(=O)C(O)(c1ccccc1)c1ccccc1)c1ccc(F)cc1,inactive: 9.4%
4,CN(C(=O)Cc1ccc(Cl)c(Cl)c1)[C@H]1CC[C@@]2(CCCO2)C[C@@H]1N1CCCC1,inactive: 3.5%
5,CN(C)C(=O)c1cc([N+](=O)[O-])cc2c1-c1c(cc([N+](=O)[O-])cc1[N+](=O)[O-])C2=O,active: 96.4%
6,O=[N+]([O-])c1ccc2c(c1)nnn2O,inactive: 16.8%
7,O=P(Nc1nccs1)(c1ccccc1)c1nc2ccccc2s1 (stereo unspecified),inactive: 12.7%
8,O=P(Nc1nccs1)(Oc1ccccc1)Oc1ccccc1,inactive: 11.8%
9,CCOP1(=S)c2c(C)nn(CCC#N)c2N=C(c2ccccc2F)N1C (stereo unspecified),inactive: 17.6%
10,CS(=O)(=O)c1cc([N+](=O)[O-])c2no[n+]([O-])c2c1,inactive: 11.9%
11,Nc1ccccc1[As](=O)(O)c1ccccc1,inactive: 22.1%
12,O=C(O)COc1ccc([As](=O)(O)O)cc1[N+](=O)[O-],inactive: 20.7%
13,Nc1cccc2c([As](=O)(O)O)cccc12,inactive: -23.2%
14,Cc1ccc(NCCc2c([N+](=O)[O-])cc([N+](=O)[O-])cc2[N+](=O)[O-])cc1,inactive: 29%
15,CCCOP(=S)(Nc1nc(N)cc(=O)[nH]1)OCCC,inactive: 12.5%
16,CCOP(=O)(Nc1cccc2ccccc12)OCC,inactive: -0.3%
17,COc1cc(C2NCCC3(OCCO3)C2(C)C)cc(OC)c1OC (stereo unspecified),inactive: 8%
18,O=C(OC1CN2CCC1CC2)c1ccc(Cl)cc1 (stereo unspecified),inactive: 32.8%
19,CS(=O)(=O)c1ccc(Cl)c(NC(=O)COC(=O)C(O)(c2ccccc2)c2ccccc2)c1,inactive: -2.4%
20,COc1cc(C(=O)NCC2(N3CCOCC3)CCCCC2)cc(Cl)c1OC(C)C,inactive: 3.7%
21,O=[As](O)(O)c1cccnc1,inactive: 16.1%
22,O=[As](O)(c1cccc(O)c1)c1cccc(O)c1,inactive: 21.5%
23,Cc1cccc(OCC(=O)OC2CN3CCC2CC3)c1 (stereo unspecified),inactive: 16.6%
24,O=[N+]([O-])c1cc(Oc2ccc([N+](=O)[O-])cc2C(F)(F)F)cc([N+](=O)[O-])c1,inactive: 3.3%
25,COc1ccc(N/C(=N/P(=O)(N2CCOCC2)N2CCOCC2)N2CCOCC2)cc1,inactive: 21.3%
